ChEMBL document CHEMBL1140690, “5-((4-Aminopiperidin-1-yl)methyl)pyrrolotriazine dual inhibitors of EGFR and HER2 protein tyrosine kinases” (Bioorg Med Chem Lett, 2007)

Sequences of proteins named here, by UniProt entry; tags and fusion partners are left off.
UniProt P00533, whole entry: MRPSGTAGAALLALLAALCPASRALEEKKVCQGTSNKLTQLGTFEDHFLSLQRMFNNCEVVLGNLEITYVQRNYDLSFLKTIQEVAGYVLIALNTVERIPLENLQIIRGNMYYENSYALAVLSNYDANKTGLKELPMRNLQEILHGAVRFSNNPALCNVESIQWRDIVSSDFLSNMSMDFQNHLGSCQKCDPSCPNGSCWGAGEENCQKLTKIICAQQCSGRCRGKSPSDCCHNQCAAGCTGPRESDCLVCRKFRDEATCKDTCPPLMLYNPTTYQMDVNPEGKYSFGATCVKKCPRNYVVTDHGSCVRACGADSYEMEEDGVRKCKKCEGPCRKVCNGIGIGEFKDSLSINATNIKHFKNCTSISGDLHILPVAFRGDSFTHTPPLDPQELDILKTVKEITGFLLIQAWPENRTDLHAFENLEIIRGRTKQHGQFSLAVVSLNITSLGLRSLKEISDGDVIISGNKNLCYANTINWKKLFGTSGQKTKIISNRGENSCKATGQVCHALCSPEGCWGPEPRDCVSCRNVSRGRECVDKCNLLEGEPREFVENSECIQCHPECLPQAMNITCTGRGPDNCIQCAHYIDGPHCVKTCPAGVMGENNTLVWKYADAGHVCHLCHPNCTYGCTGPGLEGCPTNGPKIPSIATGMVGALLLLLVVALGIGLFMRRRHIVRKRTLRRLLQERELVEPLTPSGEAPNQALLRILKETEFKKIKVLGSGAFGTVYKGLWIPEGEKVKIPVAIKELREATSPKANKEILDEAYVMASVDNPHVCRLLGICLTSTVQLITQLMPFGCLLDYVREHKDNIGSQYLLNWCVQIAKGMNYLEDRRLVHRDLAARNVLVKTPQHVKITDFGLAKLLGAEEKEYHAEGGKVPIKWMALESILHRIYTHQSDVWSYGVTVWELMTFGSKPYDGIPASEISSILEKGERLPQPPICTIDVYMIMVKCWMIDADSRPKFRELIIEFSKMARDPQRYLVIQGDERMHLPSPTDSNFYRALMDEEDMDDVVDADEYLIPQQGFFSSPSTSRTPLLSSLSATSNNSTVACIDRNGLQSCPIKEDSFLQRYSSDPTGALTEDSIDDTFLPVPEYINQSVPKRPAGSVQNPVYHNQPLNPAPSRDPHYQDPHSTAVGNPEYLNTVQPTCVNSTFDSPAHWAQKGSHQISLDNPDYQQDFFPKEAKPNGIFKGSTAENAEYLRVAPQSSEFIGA

Target: Epidermal growth factor receptor (Homo sapiens, UniProt P00533)
Assay: Inhibition of human recombinant EGFR expressed in insect Sf9 cells

Compound: Fc1cccc(COc2ccc(Nc3ncnn4ccc(COC[C@@H]5CNCCO5)c34)cc2Cl)c1
- IC50: 0.56 µM
